Measurements from ChEMBL document CHEMBL2429861, “Chemopreventive and antioxidant activity of 6-substituted imidazo[2,1-b]thiazoles” (Eur J Med Chem, 2013).

Chains of the proteins cited; added tags and fusions are not shown.
UniProt Q64669, whole entry: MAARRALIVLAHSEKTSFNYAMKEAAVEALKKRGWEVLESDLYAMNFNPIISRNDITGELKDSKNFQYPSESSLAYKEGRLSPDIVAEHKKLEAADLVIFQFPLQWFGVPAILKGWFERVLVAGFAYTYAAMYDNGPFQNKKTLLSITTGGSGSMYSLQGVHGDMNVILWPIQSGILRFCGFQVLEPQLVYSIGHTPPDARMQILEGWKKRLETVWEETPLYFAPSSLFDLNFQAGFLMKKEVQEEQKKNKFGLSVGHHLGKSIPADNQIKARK

Experiments:
[1] = biological target: NAD(P)H dehydrogenase [quinone] 1 (Mus musculus) (UniProt Q64669); experiment: Induction of quinone reductase-1 activity in mouse Hepa-1c1c7 cells assessed as induction ratio at 50 uM by MTT assay relative to DMSO-treated control; format: cell-based
How it was run: (§1)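 Hepa 1c1c7 murine hepatoma cells incubated with compounds at […]. Cells were permeabilized with digitonin and QR1 activity measured by MTT reduction to formazan at 595 nm, with a parallel crystal violet protein assay. IR is specific activity versus DMSO control; CD is the concentration doubling activity, determined only where IR >2. Two independent experiments in triplicate.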

[2] = biological target: NAD(P)H dehydrogenase [quinone] 1 (Mus musculus) (UniProt Q64669); experiment: Induction of quinone reductase-1 activity in mouse Hepa-1c1c7 cells assessed as concentration required to double induction activity by MTT assay; format: cell-based; how it was run: as §1

Ratio [1]: 4.2
CD [2]: 20 nM
Compound: O=c1cc(-c2ccc(Br)cc2)oc2ccccc12
